Test [1] deals with SARS-CoV-2 Mac1 (Severe acute respiratory syndrome coronavirus 2, UniProt P0DTD1). The test is classed as binding. Conditions: FRET assay, text and Fig. 1C.
For test [2], the system named is MHV-JHM.

Results on 2 molecules are retold here after paper doi:10.1101/2023.08.28.555062, “Discovery of 2-amide-3-methylester thiophenes that target SARS-CoV-2 Mac1 and repress coronavirus replication, validating Mac1 as an anti-viral target” (bioRxiv, 2023).

On to `COC(=O)c1c(NC(=O)[C@H]2CCCC[C@@H]2C(=O)O)sc2c1CCCCC2` [Compound 25, (1S,2S)-2-{[3-(methoxycarbonyl)-4H,5H,6H,7H,8H-cyclohepta[b]thiophen-2-yl]carbamoyl}cyclohexane-1-carboxylic acid], for which the IC50 entry in test [1] is “inactive”.
For the molecule `COC(=O)c1c(NC(=O)[C@@H]2CCCC[C@H]2C(=O)O)sc2c1CCCCCC2` [Compound 27, (1R,2R)-2-{[3-(methoxycarbonyl)-4H,5H,6H,7H,8H,9H-cycloocta[b]thiophen-2-yl]carbamoyl}cyclohexane-1-carboxylic acid], the “concentration required for inhibition of MHV replication” value in test [2] was in the range of 50 to 100 µM.
